# B1: hu75-vc6780 (conjugate)
# heavy: EVQLVESGGGLVQPGGSLRLSCAASGYAFTDYWMTWVRQAPGKGLEWVAEISPNSGGTNFNEKFKGRFTISVDNAKNSLYLQMNSLRAEDTAVYYCARGEIRYNWFAYWGQGTLVTVSSASTKGPSVFPLAPSSKSTSGGTAALGCLVKDYFPEPVTVSWNSGALTSGVHTFPAVLQSSGLYSLSSVVTVPSSSLGTQTYICNVNHKPSNTKVDKKV[letters of human IgG1 Fc omitted]
# light: DIQMTQSPSSLSASVGDRVTITCKASQNVGNNIAWYQQKPGKAPKLLIYYASNRYTGVPSRFSGSGYGTDFTLTISSLQPEDFATYYCQRLYNSPFTFGGGTKVEIKRTVAAPSVFIFPPSDEQLKSGTASVVCLLNNFYPREAKVQWKVDNALQSGNSQESVTEQDSKDSTYSLSSTLTLSKADYEKHKVYACEVTHQGLSSPVTKSFNRGEC
# What was measured:
# [1] = system: N87 gastric xenografts; assay: N87 gastric xenograft model; assay type: in vivo, mouse; conditions: Table 27 study
# Procedure: Similar in vivo experiments were performed with the N87 gastric cancer cell line as described above. To generate xenografts, nude (Nu/Nu) female mice were implanted subcutaneously with 8×10^6 N87 cells in 50% Matrigel (BD Biosciences).
# The N87 gastric model was also dosed intravenously Q4d×4 with PBS vehicle, rat-human chimeric anti-Notch3 ADCs and control huNeg-8.8 ADCs, at a dose of 5 mg/kg as provided in FIG. 16D.
# The N87 gastric model was also dosed intravenously Q4d×4 with PBS vehicle and rat-human chimeric anti-Notch3 ADCs ch28-mc0131, ch75-mc0131, ch28-m(H2O)c-0131 and ch75-m(H2O)c-0131 at a dose of 5 mg/kg as provided in FIG. 16E.
# [2] = system: OVCAR3 (ovarian cancer); assay: In vitro cytotoxicity (MTS), OVCAR3; assay type: cell-based, human; conditions: Table 14; LP = lacked potency
# Procedure: The effects of anti-Notch3 ADCs were assessed on 1) cell lines endogenously expressing Notch3 protein: HCC2429 (lung cancer), OVCAR3 (ovarian cancer) and MDA-MB-468 (breast cancer), 2) cell lines engineered to over-express full length human Notch3 protein: MDA-MB-468/hNotch3 and U2OS/hNotch3, and 3) a negative control cell line (SW900) using an MTS cellular viability indicator (Promega, Madison, Wis.). These cell lines were cultured with increasing concentrations of anti-Notch3 ADCs comprising rat-human chimeric anti-Notch3 antibodies, ch28 and ch75, and humanized anti-Notch3 antibodies, hu28 and hu75, conjugated to various linker-payload combinations of the present invention. As a specificity control for the anti-Notch3-ADCs, non-targeted control-ADCs (huNeg8.8-ADCs or ch2H6-ADCs) were also tested on the same cell lines. After four days, viability of each culture was assessed. IC50 values were calculated by logistic non-linear regression, model #203 with XL fit v4.2 (IDBS, Guildford, Surry, UK) and presented as ng Ab/mL. […]
# This process generated the anti-Notch3 cysteine mutant ADCs: hu28-(L443C)-vc0101 and hu28-(L443C/κK183C)-vc0101. The activity of the anti-Notch3 cysteine mutant ADCs were assessed on cell lines endogenously expressing Notch3 protein: HCC2429 (lung cancer) and OVCAR3 (ovarian cancer) using an MTS cellular viability indicator as described in previous Examples.
# [3] = system: 37622A1 NSCLC patient-derived xenografts; assay: 37622A1 patient derived NSCLC xenograft model; assay type: in vivo, mouse; conditions: 10 mg/kg iv Q4dx4
# Text: The effects of anti-Notch3 ADCs were examined in immunodeficient mice on the in vivo growth of human tumor xenografts that were established from fragments of freshly resected 37622A1 NSCLC tumors obtained in accordance with appropriate consent procedures (Asterand). The 37622A1 NSCLC patient-derived xenografts were subcutaneously passaged in vivo as fragments from animal to animal in nude (Nu/Nu) female mice. When the tumors reached a volume of 150 to 300 mm^3, they were staged to ensure uniformity of the tumor size among various treatment groups. The 37622A1 NSCLC patient-derived xenografts model was dosed intravenously four times every four days (Q4d×4) with PBS vehicle, humanized anti-Notch3 ADCs, control huNeg-8.8 ADCs and cisplatin at the doses provided in Table 19.
molecule,measurement,setting,value
B1,tumor volume,"[1]; DAY 4, dose 1 mg/kg intravenously Q4d×4",546 mm^3
same,tumor volume,"[1]; DAY 4, dose 3 mg/kg intravenously Q4d×4",545 mm^3
same,tumor volume,"[1]; DAY 4, dose 10 mg/kg intravenously Q4d×4",468 mm^3
same,tumor volume,"[1]; DAY 8, dose 1 mg/kg intravenously Q4d×4",563 mm^3
same,tumor volume,"[1]; DAY 8, dose 3 mg/kg intravenously Q4d×4",511 mm^3
same,tumor volume,"[1]; DAY 8, dose 10 mg/kg intravenously Q4d×4",351 mm^3
same,tumor volume,"[1]; DAY 11, dose 1 mg/kg intravenously Q4d×4",582 mm^3
same,tumor volume,"[1]; DAY 11, dose 3 mg/kg intravenously Q4d×4",544 mm^3
same,tumor volume,"[1]; DAY 11, dose 10 mg/kg intravenously Q4d×4",316 mm^3
same,tumor volume,"[1]; DAY 14, dose 1 mg/kg intravenously Q4d×4",667 mm^3
same,tumor volume,"[1]; DAY 14, dose 3 mg/kg intravenously Q4d×4",558 mm^3
same,tumor volume,"[1]; DAY 14, dose 10 mg/kg intravenously Q4d×4",269 mm^3
same,tumor volume,"[1]; DAY 18, dose 1 mg/kg intravenously Q4d×4",638 mm^3
same,tumor volume,"[1]; DAY 18, dose 3 mg/kg intravenously Q4d×4",494 mm^3
same,tumor volume,"[1]; DAY 21, dose 1 mg/kg intravenously Q4d×4",709 mm^3
same,tumor volume,"[1]; DAY 21, dose 3 mg/kg intravenously Q4d×4",534 mm^3
same,tumor volume,"[1]; DAY 21, dose 10 mg/kg intravenously Q4d×4",192 mm^3
same,tumor volume,"[1]; DAY 25, dose 1 mg/kg intravenously Q4d×4",750 mm^3
same,tumor volume,"[1]; DAY 25, dose 3 mg/kg intravenously Q4d×4",628 mm^3
same,tumor volume,"[1]; DAY 28, dose 1 mg/kg intravenously Q4d×4",763 mm^3
same,tumor volume,"[1]; DAY 28, dose 3 mg/kg intravenously Q4d×4",645 mm^3
same,tumor volume,"[1]; DAY 28, dose 10 mg/kg intravenously Q4d×4",244 mm^3
same,tumor volume,"[1]; DAY 33, dose 1 mg/kg intravenously Q4d×4",991 mm^3
same,tumor volume,"[1]; DAY 33, dose 3 mg/kg intravenously Q4d×4",730 mm^3
same,tumor volume,"[1]; DAY 33, dose 10 mg/kg intravenously Q4d×4",267 mm^3
same,tumor volume,"[1]; DAY 36, dose 3 mg/kg intravenously Q4d×4",850 mm^3
same,tumor volume,"[1]; DAY 36, dose 10 mg/kg intravenously Q4d×4",300 mm^3
same,tumor volume,"[1]; DAY 39, dose 3 mg/kg intravenously Q4d×4",881 mm^3
same,tumor volume,"[1]; DAY 39, dose 10 mg/kg intravenously Q4d×4",323 mm^3
same,tumor volume,"[1]; DAY 42, dose 3 mg/kg intravenously Q4d×4",1020 mm^3
same,tumor volume,"[1]; DAY 42, dose 10 mg/kg intravenously Q4d×4",350 mm^3
same,"IC50 (ng Ab/mL), OVCAR3",[2],254 ng Ab/mL
same,tumor volume,[3]; Day 4,205 mm^3
same,tumor volume,[3]; Day 7,195 mm^3
same,tumor volume,[3]; Day 11,147 mm^3
same,tumor volume,[3]; Day 14,118 mm^3
same,tumor volume,[3]; Day 18,93 mm^3
same,tumor volume,[3]; Day 21,98 mm^3
same,tumor volume,[3]; Day 25,93 mm^3
same,tumor volume,[3]; Day 28,99 mm^3
same,tumor volume,[3]; Day 32,165 mm^3
same,tumor volume,[3]; Day 35,229 mm^3
same,tumor volume,[3]; Day 39,294 mm^3
same,tumor volume,[3]; Day 42,318 mm^3
same,tumor volume,[3]; Day 46,412 mm^3
same,tumor volume,[3]; Day 49,521 mm^3
same,tumor volume,[3]; Day 53,629 mm^3
same,tumor volume,[3]; Day 56,808 mm^3
same,tumor volume,[3]; Day 60,917 mm^3
same,tumor volume,[3]; Day 63,917 mm^3
same,tumor volume,[3]; Day 67,1116 mm^3
same,tumor volume,[3]; Day 70,1181 mm^3
same,tumor volume,[3]; Day -1,183 mm^3
